Measurements: US10709791B2, “Stabilized polymeric carriers for therapeutic agent delivery” (University of Washington, priority 2014, dated 2020)
Like-named read-outs stand apart in the source and are kept apart here.

Assays:
[1] = human serum, 37° C., at 24 h
[2] = diblock with discrete hydrophobic drug block
[3] = Serum stability of peptide macromonomers and polymers; assay type: in vitro ADME, human; settings: 37° C., 0 to 12 hours, MALDI-TOF MS
[4] = test system: SKOV3 human ovarian cancer cells; settings: 96 hours

ciprofloxacin-(phenol)methacrylate [CPM]
drug release [1]: ~50%

poly(methacrylic acid-co-dimethylaminoethyl methacrylate)-b-(DtSMA) [poly(MA-co-DMAEMA)-b-(DtSMA)]
effect of self assembly on ester hydrolysis / drug release rate [2]: significantly reduces the ester hydrolysis rate

poly[(DEAEMA)-co-(BMA)]-b-[(PEGMA300)-c-(MaAhxFKFLAhxBIM)] [PolBIM]
hydrodynamic diameter (endosomal pH values (6.6-5.8)): 6 nm | hydrodynamic diameter (pH 5.8): 6 nm | hydrodynamic diameter (pH 7.4 (physiological pH)): approximately 25 nm | hydrodynamic diameter (pH 7.4 (physiological pH), listed as Pol{right arrow over (BIM)}): 25 nm | stability of the FKFL linker in human serum [3]: 2980 Da peak was absent at all time points | cells remaining viable ([4]; 10 μM): 25% | cell viability ([4]; all polymer concentrations (0-10 μM)): reduced the viability

poly[(DEAEMA)-co-(BMA)]-b-[(PEGMA300)-c-(MaAhxFKFLAhxScrBIM)] [PolScrBIM]
hydrodynamic diameter (endosomal pH values (6.6-5.8)): 6 nm | hydrodynamic diameter (pH 5.8): 6 nm | hydrodynamic diameter (pH 7.4 (physiological pH)): 26 nm | hydrodynamic diameter (pH 7.4 (physiological pH), listed as PolSrBIM): approximately 25 nm | stability of the FKFL linker in human serum [3]: 2980 Da peak was absent at all time points
